Experimental data published in patent publication US9803021B2 (The Regents of the University of California, priority 2012, dated 2017).

Key:
Assay in all cases: Cell cycle analysis (PI DNA content, flow cytometry)
Type in all cases: cell-based, human
ANBL-6 = conditions: ANBL-6, 500 pM, 4 days
Protocol: (§1) Cells were incubated with 1 ml of hypotonic DNA staining buffer (1 mg/ml sodium citrate, 100 μg/ml PI, 20 μg/ml RNase A, and 0.3% Triton X-100 in dH2O) for 30-60 min at 4° C. in the dark. Cells were analyzed by flow cytometry and cell cycle analysis performed using FlowJo software with the Watson Model.
(§2) Cells were incubated with 1 ml of hypotonic DNA staining buffer (1 mg/ml sodium citrate, 100 μg/ml PI, 20 μg/ml RNase A, and 0.3% Triton X-100) for 30-60 minutes at 4° C. in the dark. Cells were analyzed by flow cytometry and cell cycle analysis performed using FlowJo software with the Watson Model.

MM1-144 = conditions: MM1-144, 500 pM, 4 days
Protocol: as §1, §2

NCI-H929 = conditions: NCI-H929, 500 pM, 4 days
Protocol: as §1, §2

OCI-My5 = conditions: OCI-My5, 500 pM, 4 days
Protocol: as §1, §2

U266 = conditions: U266, 500 pM, 4 days
Protocol: as §1, §2

B1: IFNβ: recombinant interferon beta, unfused (protein, UniProt P01574 22-187, looked up)
Interferon beta: MSYNLLGFLQRSSNFQCQKLLWQLNGRLEYCLKDRMNFDIPEEIKQLQQFQKEDAALTIYEMLQNIFAIFRQDSSSTGWNETIVENLLANVYHQINHLKTVLEEKLEKEDFTRGKLMSSLHLKRYYGRILHYLKAKEYSHCAWTIVRVEILRNFYFINRLTGYLRN
ANBL-6
  % G1: 60.5%
  % G2/M: 18.8%
  % S: 15.4%
  >G2: 0.0%
  Sub G0/G1: 26.1%
MM1-144
  % G1: 29.0%
  % G2/M: 26.7%
  % S: 33.7%
  >G2: 8.6%
  Sub G0/G1: 11.7%
NCI-H929
  % G1: 41.2%
  % G2/M: 23.4%
  % S: 22.1%
  >G2: 7.8%
  Sub G0/G1: 37.4%
OCI-My5
  % G1: 21.8%
  % G2/M: 19.0%
  % S: 54.2%
  >G2: 0.0%
  Sub G0/G1: 29.5%
U266
  % G1: 58.7%
  % G2/M: 20.1%
  % S: 12.4%
  >G2: 7.1%
  Sub G0/G1: 17.0%
